{"source": "patent US20250320471A1", "about": "“Method for Producing Compounds, Method for Producing Compound Library, Compound Library, and Screening Method” (The University of Tokyo, priority 2021, published 2025)", "key": {"LimF-H172L [1]": {"test_system": "LimF-H172L", "test": "Tyr-prenylation of bioactive peptides by LimF-H172L variant", "format": "biochemical, Limnothrix sp. CACIAM 69d", "details": "50 μM substrate, 40 μM LimF-H172L, 2 mM GPP, 20 hours; for % prenylation (LC/MS): Tyr-prenylation"}, "LimF-H172L [2]": {"test_system": "LimF-H172L", "test": "Steady-state kinetics of prenylation by LimF-H172L mutant", "format": "biochemical, Limnothrix sp. CACIAM 69d", "experimental": "(§1) Kinetic parameters of the His-prenylation reaction facilitated by LimF were determined based on reactions under optimal conditions using substrates of different concentrations. For the Tyr-prenylation described below, the kinetic parameters were measured under the same conditions except that LimF was set to 5 μM and the reaction temperature was set to 16° C. In order to estimate the kinetic parameters, the initial rate and substrate concentration were fitted to the Michaelis-Menten model in Graphpad Prism 8.4.2 software."}, "teR6-H5A": {"target": "T1, teR6-H5A", "T1 chain": "FRGNATYIPC"}, "bcLimE2": {"target": "T2, bcLimE2", "T2 chain": "RYPHEEIP"}, "teR6 and teR6-H5A": {"test_system": "teR6 and teR6-H5A", "test": "Tyr-prenylation ability of LimF variants on teR6 and teR6-H5A", "format": "biochemical", "experimental": "as §1\nSimilarly, modification of the teR6 and teR6-H5A substrates facilitated by wt-LimF and each LimF variant was performed to evaluate the Tyr-prenylation ability thereof. The reaction was carried out in the same manner as the prenylation of bcLimE2, except that teR6 or teR6-H5A was used as the substrate and the reaction was carried out with 5 μM LimF for 24 hours."}, "[3]": {"details": "Tyr-prenylation (C10 O-) by LimF-H172L"}, "[4]": {"details": "Tyr-prenylation (C10 O-) by LimF-H172L, listed as tecyclo[DFRGNATYIPC]"}}, "note": "Ends that are not written are not given here. Peptide text beside a SMILES is read from it.", "data": [{"molecule": "PGTCEICAYAACYGC (cysteine pairing not given here) [Guanylin, Guanylyl cyclase receptor GC-C agonist]", "values": [{"measurement": "% prenylation (LC/MS)", "setting": "LimF-H172L [1]", "value": 1, "unit": "%"}]}, {"molecule": "tecyclo[wAVSNLPPRPHITYIEC]S [PBm1]", "values": [{"measurement": "% prenylation (LC/MS)", "setting": "LimF-H172L [1]", "value": 5, "unit": "%"}]}, {"molecule": "H-Asp-Arg-Val-Tyr-Ile-His-Pro-Phe-OH [ANGIOTENSIN II]", "values": [{"measurement": "Tyr-prenylation by LimF-H172L variant (in words)", "setting": "LimF-H172L [1]", "value": "high efficiency"}]}, {"molecule": "tecyclo[yWYYAWDQTYKAFPC]G [aMDS]", "values": [{"measurement": "% prenylation (LC/MS)", "setting": "LimF-H172L [1]", "value": 1, "unit": "%"}]}, {"molecule": "CCC(C)C1NC(=O)C(CCC(=O)O)NC(=O)C(CCC(=O)O)NC(=O)C(Cc2c[nH]cn2)NC(=O)C2CCCN2C(=O)C(Cc2ccc(O)cc2)NC(=O)C(CCCNC(=N)N)NC(=O)C2CCCN2C1=O", "note": "(stereo not drawn) [bcLimE2] (cyclo(EEIPRYPH); configuration not given here)", "values": [{"measurement": "Km", "setting": "LimF-H172L [2]; His-prenylation by LimF-H172L", "value": "1700 ± 400", "unit": "µM"}, {"measurement": "kcat", "setting": "LimF-H172L [2]; His-prenylation by LimF-H172L", "value": "0.00083 ± 0.00017", "unit": "s⁻¹"}]}, {"molecule": "Trp-His-Trp-Leu-Gln-Leu-Lys-Pro-Gly-Gln-Pro-Met-Tyr-OH (WHWLQLKPGQPMY-OH) [α-mating factor, cell signaling peptide for yeast]", "values": [{"measurement": "% prenylation (LC/MS)", "setting": "LimF-H172L [1]", "value": 4, "unit": "%"}]}, {"molecule": "tecyclo[DFRGNATYIPC] [teR6-H5A]", "values": [{"measurement": "Km", "setting": "LimF-H172L [2]; [3]", "value": "1700 ± 400", "unit": "µM"}, {"measurement": "kcat", "setting": "LimF-H172L [2]; [3]", "value": "0.02 ± 0.0017", "unit": "s⁻¹"}, {"measurement": "Km", "setting": "LimF-H172L [2]; [4]", "value": 1740, "unit": "µM"}, {"measurement": "kcat", "setting": "LimF-H172L [2]; [4]", "value": 0.0198, "unit": "s⁻¹"}]}, {"molecule": "LimF-H172L (protein) MKKRKSSKVFKSTIAPEEKLRYIGNHKQAFDIEPLYPLALFEEFVATTGDCIIECSGKIKQDQLYPARIDLQFSDKHHFHNIHTSIDFLKRAASRTDVNLNLDILATFLAGNFDYSKVQNILAGIDLRQNLGESKLKLFIRIGDYPAKMAVAKHLCNITPESEAMLRSDTLLIGFDFYLDGRSAIELYPELKKDEFNHPFIYNQLKTILSPEALKPLPLCNLFGIGLSPANEANVLYYHLENIEDFLSYFPINDTARRVHDFYLQQEGSRRMWVALSESEMKAGRINNVNLYYSKAFTSQNP", "values": [{"measurement": "Km (mM), steady-state kinetics of Tyr-prenylation with GPP", "setting": "teR6-H5A", "value": 1.7, "unit": "mM"}, {"measurement": "Km (mM), steady-state kinetics of His-prenylation with GPP", "setting": "bcLimE2", "value": 1.7, "unit": "mM"}]}, {"molecule": "LimF-H172L: LimF in which His at position 172 is replaced by Leu, SEQ ID NO: 13 (protein, LimF-H172L) MKKRKSSKVFKSTIAPEEKLRYIGNHKQAFDIEPLYPLALFEEFVATTGDCIIECSGKIKQDQLYPARIDLQFSDKHHFHNIHTSIDFLKRAASRTDVNLNLDILATFLAGNFDYSKVQNILAGIDLRQNLGESKLKLFIRIGDYPAKMAVAKHLCNITPESEAMLRSDTLLIGFDFYLDGRSAIELYPELKKDEFNHPFIYNQLKTILSPEALKPLPLCNLFGIGLSPANEANVLYYHLENIEDFLSYFPINDTARRVHDFYLQQEGSRRMWVALSESEMKAGRINNVNLYYSKAFTSQNP", "values": [{"measurement": "fold increase in kcat/Km over the wild type", "setting": "teR6 and teR6-H5A; steady-state kinetic assay, Tyr-prenylation of teR6-H5A (Table 11, Items 3 and 5)", "value": 5, "unit": "fold"}, {"measurement": "Tyr-prenylation ability", "setting": "teR6 and teR6-H5A; teR6 or teR6-H5A substrate, 5 μM enzyme, 24 hours", "value": "more favorable modification efficiency for Tyr-containing substrates than wild-type LimF"}]}]}
